For experiment [1], the target named is fibrin (human) (UniProt P02679). The experiment is described as follows: radioligand binding.
For experiment [2] the target is unchanged. The experiment can be described thus: co-sedimentation.

The chains behind the UniProt entries cited, without tags or fusion partners. Where a name states a change or a piece, a line headed by the entry shows the natural chain unless it says otherwise. Residues count along the entry.
UniProt P02679: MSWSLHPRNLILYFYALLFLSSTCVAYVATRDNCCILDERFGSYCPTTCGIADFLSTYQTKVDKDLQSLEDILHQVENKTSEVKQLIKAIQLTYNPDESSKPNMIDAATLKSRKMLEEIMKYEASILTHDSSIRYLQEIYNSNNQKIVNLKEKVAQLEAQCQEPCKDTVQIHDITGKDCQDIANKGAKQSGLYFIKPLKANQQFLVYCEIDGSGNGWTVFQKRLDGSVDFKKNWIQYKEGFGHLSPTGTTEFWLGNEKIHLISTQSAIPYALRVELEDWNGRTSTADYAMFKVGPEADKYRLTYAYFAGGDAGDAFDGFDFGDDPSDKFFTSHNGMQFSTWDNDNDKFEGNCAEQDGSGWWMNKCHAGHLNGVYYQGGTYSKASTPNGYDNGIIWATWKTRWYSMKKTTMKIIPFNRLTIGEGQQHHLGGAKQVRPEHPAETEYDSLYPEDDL
UniProt P02745, 23-245: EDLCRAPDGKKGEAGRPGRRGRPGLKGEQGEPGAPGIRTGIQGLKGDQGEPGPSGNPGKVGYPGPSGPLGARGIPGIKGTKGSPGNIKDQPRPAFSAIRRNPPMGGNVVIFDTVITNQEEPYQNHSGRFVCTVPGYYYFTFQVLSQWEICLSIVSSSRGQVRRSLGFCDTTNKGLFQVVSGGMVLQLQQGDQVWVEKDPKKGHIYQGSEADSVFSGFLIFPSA
C1q, UniProt P02746, 28-253: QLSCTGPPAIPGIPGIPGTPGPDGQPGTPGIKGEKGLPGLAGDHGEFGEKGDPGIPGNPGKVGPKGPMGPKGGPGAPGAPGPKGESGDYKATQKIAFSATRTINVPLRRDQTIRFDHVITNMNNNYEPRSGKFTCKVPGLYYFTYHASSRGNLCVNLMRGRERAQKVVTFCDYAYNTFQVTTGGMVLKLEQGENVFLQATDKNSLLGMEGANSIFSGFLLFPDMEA
C1q, UniProt P02747, 29-245: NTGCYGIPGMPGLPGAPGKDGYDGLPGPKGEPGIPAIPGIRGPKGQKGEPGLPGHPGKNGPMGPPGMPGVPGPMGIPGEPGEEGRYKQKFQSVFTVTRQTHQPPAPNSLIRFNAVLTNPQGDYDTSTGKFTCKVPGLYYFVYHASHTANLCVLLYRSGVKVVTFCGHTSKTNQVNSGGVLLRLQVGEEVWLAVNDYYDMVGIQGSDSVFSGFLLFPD

A value given as a limit tells only on which side of the number the result lay.

In the experiment with fibrin (human) [1], “C1q (from UniProt P02745 23-245; P02746 28-253; P02747 29-245) (complex)” displayed a binding at 75 mM NaCl as percent of that at 20 mM NaCl below 50% and a percent of input bound (500,000 cpm/well) of 2.4%. Besides, in the experiment with fibrin (human) [2], the percent bound after 16 h, after 5 M urea wash (Table 1) was found to be 28.5%; the percent bound after 16 h, non-denaturing wash amounted to 24%; the percent bound at 30 min, after 5 M urea wash stood at 11%; the percent bound at 30 min, non-denaturing wash was 13%. For the same substance, in the experiment with fibrin (human) [2], the percent bound at 960 min, after 5 M urea wash was 17.6% and the percent bound to plasma clots at 70 mM salt worked out at 2.5%.

Source of the values: doi:10.1101/2023.10.19.563203.
